Measurements reported in patent US20060078921A1, “Biomarkers and expression profiles for toxicology” (priority 2002, published 2006).

How the values were obtained:
[1] = tested on: candidate marker genes (Table 4); assay: RT-PCR of candidate marker genes to differentiate toxic and non-toxic 5-HT6 receptor antagonists (FIG. 10); assay type: in vivo, Wistar rats; details: rat liver, some of the selected genes
[2] = tested on: CYP2B; details: liver

## (4-Amino-N-(6-bromo-1 H-indol-4-yl)-benzenesulfonamide [Ro65-7199]
[1]
  expression levels of selected marker genes (RT-PCR, FIG. 10): larger effect
[2]; 6 hours after administration
  induction of CYP2B protein (Western blot): could not be detected
[2]; 24 hours and 7 days after treatment
  protein levels of CYP2B (Western blot): closely paralleled the amounts of mRNA
